Assay results reported in patent US9623028B2 (dated 2017).
Where two headings read alike, the source gives them in different places.

Columns and labels:
[1] = test system: breast cancer cell lines; assay: cells; conditions: read-out: Growth Inhibition IC50
[2] = test system: non small cell lung cancer (NSCLC) cell lines; assay: cells; conditions: Homo sapiens, NCI-H520, 72 h, read-out: Average IC50 (μM)

`CNC(=O)c1ccc(Nc2nc(OC3CCCC3)c3c(-c4ccc(O)cc4)c[nH]c3n2)c(OC)c1` [Compound 3, 4-((4-(cyclopentyloxy)-5-(4-hydroxyphenyl)-7H-pyrrolo[2,3-d]pyrimidin-2-yl)amino)-3-methoxy-N-methylbenzamide] showed an IC50 ([1]; HCC1500, 96 h) of 13900 nM, an IC50 ([1]; Homo sapiens, MDA-MB-134-VI, 96 h) of 1390 nM and an IC50 [2] of 1.45 µM.
